Assay results as given in patent EP4834897A1, “COMPOUNDS WITH TWO AZAHETEROCYCLES SUBSTITUTED ISOINDOLINONE SKELETON AND USES THEREOF” (dated 2026).

Amino acid sequences for entries named in this document (tags omitted).
UniProt P48729, whole entry: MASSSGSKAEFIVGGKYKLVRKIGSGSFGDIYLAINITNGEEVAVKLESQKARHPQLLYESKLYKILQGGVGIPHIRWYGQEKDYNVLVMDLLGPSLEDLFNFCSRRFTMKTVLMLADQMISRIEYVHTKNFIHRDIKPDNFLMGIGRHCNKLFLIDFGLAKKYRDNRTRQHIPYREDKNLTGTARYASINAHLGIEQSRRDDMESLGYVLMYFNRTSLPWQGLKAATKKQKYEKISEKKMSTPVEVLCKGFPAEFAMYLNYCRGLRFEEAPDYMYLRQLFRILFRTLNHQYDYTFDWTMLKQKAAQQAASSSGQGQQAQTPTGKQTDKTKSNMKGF
UniProt Q96SW2, whole entry: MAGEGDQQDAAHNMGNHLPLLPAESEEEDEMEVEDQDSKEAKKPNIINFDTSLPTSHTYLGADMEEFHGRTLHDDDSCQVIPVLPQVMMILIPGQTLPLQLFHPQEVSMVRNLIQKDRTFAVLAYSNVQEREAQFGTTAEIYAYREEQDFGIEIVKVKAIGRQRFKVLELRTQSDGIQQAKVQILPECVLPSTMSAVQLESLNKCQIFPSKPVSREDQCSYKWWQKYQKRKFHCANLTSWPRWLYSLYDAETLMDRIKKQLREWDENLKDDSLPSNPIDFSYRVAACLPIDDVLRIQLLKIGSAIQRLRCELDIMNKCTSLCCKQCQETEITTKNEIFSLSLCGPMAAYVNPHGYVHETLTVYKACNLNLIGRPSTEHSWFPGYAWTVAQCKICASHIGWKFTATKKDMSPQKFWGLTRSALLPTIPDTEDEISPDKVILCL
UniProt P15170, whole entry: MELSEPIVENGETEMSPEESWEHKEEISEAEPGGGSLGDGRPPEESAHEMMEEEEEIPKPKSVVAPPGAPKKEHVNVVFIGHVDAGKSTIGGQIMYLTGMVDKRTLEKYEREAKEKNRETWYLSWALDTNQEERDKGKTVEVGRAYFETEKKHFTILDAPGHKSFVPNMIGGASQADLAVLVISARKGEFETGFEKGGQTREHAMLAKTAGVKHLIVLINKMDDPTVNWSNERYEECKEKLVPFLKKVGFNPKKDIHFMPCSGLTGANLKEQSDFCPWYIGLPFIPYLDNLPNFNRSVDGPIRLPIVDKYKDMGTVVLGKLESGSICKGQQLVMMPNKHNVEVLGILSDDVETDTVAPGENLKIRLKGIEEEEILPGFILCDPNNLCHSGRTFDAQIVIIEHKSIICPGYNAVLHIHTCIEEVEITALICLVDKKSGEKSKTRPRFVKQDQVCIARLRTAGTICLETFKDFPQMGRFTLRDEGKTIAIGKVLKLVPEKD
UniProt Q13422, whole entry: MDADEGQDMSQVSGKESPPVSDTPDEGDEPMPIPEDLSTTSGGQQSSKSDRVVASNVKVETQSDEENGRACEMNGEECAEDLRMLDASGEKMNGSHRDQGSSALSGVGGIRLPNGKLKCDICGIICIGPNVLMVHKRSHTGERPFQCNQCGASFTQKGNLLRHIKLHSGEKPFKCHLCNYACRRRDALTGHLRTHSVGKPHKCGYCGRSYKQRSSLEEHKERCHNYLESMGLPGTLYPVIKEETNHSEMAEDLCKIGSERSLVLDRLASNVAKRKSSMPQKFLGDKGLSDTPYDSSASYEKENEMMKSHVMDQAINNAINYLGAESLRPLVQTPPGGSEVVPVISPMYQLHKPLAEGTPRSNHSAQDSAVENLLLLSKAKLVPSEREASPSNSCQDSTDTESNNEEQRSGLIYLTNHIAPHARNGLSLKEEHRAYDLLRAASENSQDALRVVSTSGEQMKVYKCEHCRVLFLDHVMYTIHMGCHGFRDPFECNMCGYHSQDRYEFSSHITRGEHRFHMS
UniProt Q9UKS7, whole entry: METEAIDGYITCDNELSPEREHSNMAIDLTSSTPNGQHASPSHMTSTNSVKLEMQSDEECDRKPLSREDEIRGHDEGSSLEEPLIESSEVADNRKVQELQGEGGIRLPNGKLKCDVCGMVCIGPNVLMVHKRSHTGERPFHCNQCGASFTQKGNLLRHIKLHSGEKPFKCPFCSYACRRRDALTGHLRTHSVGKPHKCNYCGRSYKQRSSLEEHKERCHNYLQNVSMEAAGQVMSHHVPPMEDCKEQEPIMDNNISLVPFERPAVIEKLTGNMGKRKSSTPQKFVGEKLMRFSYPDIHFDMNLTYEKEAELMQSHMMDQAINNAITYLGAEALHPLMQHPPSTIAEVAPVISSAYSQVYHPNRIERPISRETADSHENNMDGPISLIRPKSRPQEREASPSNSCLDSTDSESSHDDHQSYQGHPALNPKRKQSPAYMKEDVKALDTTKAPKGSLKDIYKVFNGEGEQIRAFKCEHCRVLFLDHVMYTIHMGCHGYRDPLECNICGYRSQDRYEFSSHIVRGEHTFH
UniProt Q9UKT9, whole entry: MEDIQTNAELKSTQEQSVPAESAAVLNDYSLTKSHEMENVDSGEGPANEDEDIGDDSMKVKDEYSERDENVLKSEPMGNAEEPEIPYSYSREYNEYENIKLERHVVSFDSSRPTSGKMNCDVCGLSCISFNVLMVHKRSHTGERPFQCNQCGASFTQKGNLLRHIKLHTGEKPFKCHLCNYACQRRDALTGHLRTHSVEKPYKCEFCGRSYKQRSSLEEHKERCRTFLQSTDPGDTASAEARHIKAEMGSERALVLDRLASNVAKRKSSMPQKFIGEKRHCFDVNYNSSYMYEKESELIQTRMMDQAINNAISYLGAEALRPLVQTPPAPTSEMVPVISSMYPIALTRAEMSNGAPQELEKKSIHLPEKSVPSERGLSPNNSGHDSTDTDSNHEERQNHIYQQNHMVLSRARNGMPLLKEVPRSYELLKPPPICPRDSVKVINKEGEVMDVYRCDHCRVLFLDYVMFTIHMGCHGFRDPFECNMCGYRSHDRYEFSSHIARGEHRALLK
UniProt P30291, whole entry: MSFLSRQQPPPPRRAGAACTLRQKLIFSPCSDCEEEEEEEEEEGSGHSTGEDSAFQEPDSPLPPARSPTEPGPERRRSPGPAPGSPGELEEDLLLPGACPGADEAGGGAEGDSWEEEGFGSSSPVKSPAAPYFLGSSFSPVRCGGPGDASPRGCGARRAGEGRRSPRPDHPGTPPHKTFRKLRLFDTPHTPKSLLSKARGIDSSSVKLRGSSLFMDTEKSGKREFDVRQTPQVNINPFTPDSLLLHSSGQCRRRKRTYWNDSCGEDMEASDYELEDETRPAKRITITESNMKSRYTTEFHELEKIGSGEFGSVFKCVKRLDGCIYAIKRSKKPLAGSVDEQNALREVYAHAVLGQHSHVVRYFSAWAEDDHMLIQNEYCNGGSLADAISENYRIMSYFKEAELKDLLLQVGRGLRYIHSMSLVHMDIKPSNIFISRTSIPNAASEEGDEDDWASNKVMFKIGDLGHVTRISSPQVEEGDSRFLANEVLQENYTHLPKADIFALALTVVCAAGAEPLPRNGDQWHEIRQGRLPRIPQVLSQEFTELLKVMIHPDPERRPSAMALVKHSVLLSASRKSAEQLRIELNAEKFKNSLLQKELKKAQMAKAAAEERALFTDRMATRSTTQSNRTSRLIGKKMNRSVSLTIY
UniProt Q16531, whole entry partner: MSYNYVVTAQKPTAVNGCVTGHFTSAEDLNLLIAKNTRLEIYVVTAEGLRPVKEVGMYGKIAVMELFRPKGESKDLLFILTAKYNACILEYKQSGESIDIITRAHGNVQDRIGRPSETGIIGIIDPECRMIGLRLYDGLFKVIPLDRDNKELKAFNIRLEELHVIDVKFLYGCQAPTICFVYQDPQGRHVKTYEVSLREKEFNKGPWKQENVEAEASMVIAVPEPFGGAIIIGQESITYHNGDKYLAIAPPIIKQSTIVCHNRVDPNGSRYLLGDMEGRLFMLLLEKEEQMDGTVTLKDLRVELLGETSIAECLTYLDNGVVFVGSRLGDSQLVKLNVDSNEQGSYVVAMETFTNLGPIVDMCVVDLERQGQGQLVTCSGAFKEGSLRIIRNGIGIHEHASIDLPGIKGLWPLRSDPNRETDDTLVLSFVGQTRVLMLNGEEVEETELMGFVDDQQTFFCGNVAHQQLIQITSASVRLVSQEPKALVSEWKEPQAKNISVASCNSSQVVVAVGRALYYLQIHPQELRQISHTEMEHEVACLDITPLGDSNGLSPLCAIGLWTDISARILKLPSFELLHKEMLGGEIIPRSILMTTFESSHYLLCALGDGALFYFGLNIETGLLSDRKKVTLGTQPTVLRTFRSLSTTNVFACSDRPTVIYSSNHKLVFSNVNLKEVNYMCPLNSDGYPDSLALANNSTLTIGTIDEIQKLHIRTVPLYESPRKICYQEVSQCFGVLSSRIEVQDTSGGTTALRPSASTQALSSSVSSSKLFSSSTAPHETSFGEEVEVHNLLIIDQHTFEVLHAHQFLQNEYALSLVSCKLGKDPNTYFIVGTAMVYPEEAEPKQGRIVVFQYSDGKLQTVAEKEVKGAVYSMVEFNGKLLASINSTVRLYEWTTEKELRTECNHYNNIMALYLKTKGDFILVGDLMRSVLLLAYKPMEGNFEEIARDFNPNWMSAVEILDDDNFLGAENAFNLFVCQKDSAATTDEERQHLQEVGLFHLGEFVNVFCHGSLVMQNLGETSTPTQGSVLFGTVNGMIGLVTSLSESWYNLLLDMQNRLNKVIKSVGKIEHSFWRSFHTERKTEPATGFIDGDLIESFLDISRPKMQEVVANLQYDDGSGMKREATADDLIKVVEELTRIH

Target: CK1α (Homo sapiens, UniProt P48729+Q96SW2)
Test: Western blot assay of substrate protein degradation in hPBMCs
Conditions: 24 hours treatment, compounds at 50 nM and 500 nM (concentration behind the class not stated)

Compound | substrate protein remaining % (CK1a)
O=C1CCC(N2C(=O)c3ccc(CN4CCC(N5CCN(c6cccc(Cl)c6Cl)CC5)C(F)(F)C4)cc3C2=O)C(=O)N1 (stereo not drawn) | A (0% ≤ substrate protein remaining % ≤ 80%)
O=C1CCN(N2C(=O)c3ccc(CN4CCC(N5CCN(c6cccc(Cl)c6Cl)CC5)C(F)(F)C4)cc3C2=O)C(=O)N1 (stereo not drawn) | B (80%< substrate protein remaining %≤ 100%)
CC1(C)CCC(CN2CCN(C3CCN(Cc4cccc5c4C(=O)N(C4CCC(=O)NC4=O)C5)CC3(F)F)CC2)=C(c2ccc(Cl)cc2)C1 (stereo not drawn) | A (0% ≤ substrate protein remaining % ≤ 80%)
O=C1CCC(N2C(=O)c3cccc(C(=O)N4CCC(N5CCN(c6cccc(Cl)c6Cl)CC5)CC4)c3C2=O)C(=O)N1 (stereo not drawn) | A (0% ≤ substrate protein remaining % ≤ 80%)
O=C1CCN(N2Cc3cc(CN4CCC(N5CCN(C(c6ccccc6)c6ccccc6)CC5)CC4)ccc3C2=O)C(=O)N1 | B (80%< substrate protein remaining %≤ 100%)
O=C1CCC(N2C(=O)c3cccc(C(=O)N4CCC(N5CCN(C(c6ccccc6)c6ccccc6)CC5)CC4)c3C2=O)C(=O)N1 (stereo not drawn) | A (0% ≤ substrate protein remaining % ≤ 80%)
O=C1CCC(N2Cc3cc(CCCN4CCC(N5CCC(c6noc7cc(F)ccc67)CC5)C(F)(F)C4)ccc3C2=O)C(=O)N1 (stereo not drawn) | A (0% ≤ substrate protein remaining % ≤ 80%)
O=C1CCC(N2C(=O)c3cccc(CN4CCC(N5CC=C(c6cccc(Cl)c6Cl)CC5)C(F)(F)C4)c3C2=O)C(=O)N1 (stereo not drawn) | B (80%< substrate protein remaining %≤ 100%)

Target: GSPT1 (Homo sapiens, UniProt P15170+Q96SW2)
Test: as above
Conditions: 24 hours treatment, compounds at 50 nM and 500 nM (concentration behind the class not stated)

Compound | substrate protein remaining % (GSPT1)
O=C1CCC(N2C(=O)c3ccc(CN4CCC(N5CCN(c6cccc(Cl)c6Cl)CC5)C(F)(F)C4)cc3C2=O)C(=O)N1 (stereo not drawn) | A (0% ≤ substrate protein remaining % ≤ 80%)
O=C1CCN(N2C(=O)c3ccc(CN4CCC(N5CCN(c6cccc(Cl)c6Cl)CC5)C(F)(F)C4)cc3C2=O)C(=O)N1 (stereo not drawn) | B (80%< substrate protein remaining %≤ 100%)
CC1(C)CCC(CN2CCN(C3CCN(Cc4cccc5c4C(=O)N(C4CCC(=O)NC4=O)C5)CC3(F)F)CC2)=C(c2ccc(Cl)cc2)C1 (stereo not drawn) | A (0% ≤ substrate protein remaining % ≤ 80%)
O=C1CCC(N2C(=O)c3cccc(C(=O)N4CCC(N5CCN(c6cccc(Cl)c6Cl)CC5)CC4)c3C2=O)C(=O)N1 (stereo not drawn) | A (0% ≤ substrate protein remaining % ≤ 80%)
O=C1CCN(N2Cc3cc(CN4CCC(N5CCN(C(c6ccccc6)c6ccccc6)CC5)CC4)ccc3C2=O)C(=O)N1 | B (80%< substrate protein remaining %≤ 100%)
O=C1CCC(N2C(=O)c3cccc(C(=O)N4CCC(N5CCN(C(c6ccccc6)c6ccccc6)CC5)CC4)c3C2=O)C(=O)N1 (stereo not drawn) | A (0% ≤ substrate protein remaining % ≤ 80%)
O=C1CCC(N2Cc3cc(CCCN4CCC(N5CCC(c6noc7cc(F)ccc67)CC5)C(F)(F)C4)ccc3C2=O)C(=O)N1 (stereo not drawn) | A (0% ≤ substrate protein remaining % ≤ 80%)
O=C1CCC(N2C(=O)c3cccc(CN4CCC(N5CC=C(c6cccc(Cl)c6Cl)CC5)C(F)(F)C4)c3C2=O)C(=O)N1 (stereo not drawn) | A (0% ≤ substrate protein remaining % ≤ 80%)

Target: IKZF1 (Homo sapiens, UniProt Q13422+Q96SW2)
Test: as above
Conditions: 24 hours treatment, compounds at 50 nM and 500 nM (concentration behind the class not stated)

Compound | substrate protein remaining % (IKZF 1)
O=C1CCC(N2C(=O)c3ccc(CN4CCC(N5CCN(c6cccc(Cl)c6Cl)CC5)C(F)(F)C4)cc3C2=O)C(=O)N1 (stereo not drawn) | A (0% ≤ substrate protein remaining % ≤ 80%)
O=C1CCN(N2C(=O)c3ccc(CN4CCC(N5CCN(c6cccc(Cl)c6Cl)CC5)C(F)(F)C4)cc3C2=O)C(=O)N1 (stereo not drawn) | B (80%< substrate protein remaining %≤ 100%)
CC1(C)CCC(CN2CCN(C3CCN(Cc4cccc5c4C(=O)N(C4CCC(=O)NC4=O)C5)CC3(F)F)CC2)=C(c2ccc(Cl)cc2)C1 (stereo not drawn) | B (80%< substrate protein remaining %≤ 100%)
O=C1CCC(N2C(=O)c3cccc(C(=O)N4CCC(N5CCN(c6cccc(Cl)c6Cl)CC5)CC4)c3C2=O)C(=O)N1 (stereo not drawn) | B (80%< substrate protein remaining %≤ 100%)
O=C1CCN(N2Cc3cc(CN4CCC(N5CCN(C(c6ccccc6)c6ccccc6)CC5)CC4)ccc3C2=O)C(=O)N1 | B (80%< substrate protein remaining %≤ 100%)
O=C1CCC(N2C(=O)c3cccc(C(=O)N4CCC(N5CCN(C(c6ccccc6)c6ccccc6)CC5)CC4)c3C2=O)C(=O)N1 (stereo not drawn) | A (0% ≤ substrate protein remaining % ≤ 80%)
O=C1CCC(N2Cc3cc(CCCN4CCC(N5CCC(c6noc7cc(F)ccc67)CC5)C(F)(F)C4)ccc3C2=O)C(=O)N1 (stereo not drawn) | B (80%< substrate protein remaining %≤ 100%)
O=C1CCC(N2C(=O)c3cccc(CN4CCC(N5CC=C(c6cccc(Cl)c6Cl)CC5)C(F)(F)C4)c3C2=O)C(=O)N1 (stereo not drawn) | B (80%< substrate protein remaining %≤ 100%)

Target: IKZF2 (Homo sapiens, UniProt Q96SW2+Q9UKS7)
Test: as above
Conditions: 24 hours treatment, compounds at 50 nM and 500 nM (concentration behind the class not stated)

Compound | substrate protein remaining % (IKZF2)
O=C1CCC(N2C(=O)c3ccc(CN4CCC(N5CCN(c6cccc(Cl)c6Cl)CC5)C(F)(F)C4)cc3C2=O)C(=O)N1 (stereo not drawn) | B (80%< substrate protein remaining %≤ 100%)
O=C1CCN(N2C(=O)c3ccc(CN4CCC(N5CCN(c6cccc(Cl)c6Cl)CC5)C(F)(F)C4)cc3C2=O)C(=O)N1 (stereo not drawn) | A (0% ≤ substrate protein remaining % ≤ 80%)
CC1(C)CCC(CN2CCN(C3CCN(Cc4cccc5c4C(=O)N(C4CCC(=O)NC4=O)C5)CC3(F)F)CC2)=C(c2ccc(Cl)cc2)C1 (stereo not drawn) | B (80%< substrate protein remaining %≤ 100%)
O=C1CCC(N2C(=O)c3cccc(C(=O)N4CCC(N5CCN(c6cccc(Cl)c6Cl)CC5)CC4)c3C2=O)C(=O)N1 (stereo not drawn) | B (80%< substrate protein remaining %≤ 100%)
O=C1CCN(N2Cc3cc(CN4CCC(N5CCN(C(c6ccccc6)c6ccccc6)CC5)CC4)ccc3C2=O)C(=O)N1 | A (0% ≤ substrate protein remaining % ≤ 80%)
O=C1CCC(N2C(=O)c3cccc(C(=O)N4CCC(N5CCN(C(c6ccccc6)c6ccccc6)CC5)CC4)c3C2=O)C(=O)N1 (stereo not drawn) | B (80%< substrate protein remaining %≤ 100%)
O=C1CCC(N2Cc3cc(CCCN4CCC(N5CCC(c6noc7cc(F)ccc67)CC5)C(F)(F)C4)ccc3C2=O)C(=O)N1 (stereo not drawn) | A (0% ≤ substrate protein remaining % ≤ 80%)
O=C1CCC(N2C(=O)c3cccc(CN4CCC(N5CC=C(c6cccc(Cl)c6Cl)CC5)C(F)(F)C4)c3C2=O)C(=O)N1 (stereo not drawn) | B (80%< substrate protein remaining %≤ 100%)

Target: IKZF3 (Homo sapiens, UniProt Q96SW2+Q9UKT9)
Test: as above
Conditions: 24 hours treatment, compounds at 50 nM and 500 nM (concentration behind the class not stated)

Compound | substrate protein remaining % (IKZF3)
O=C1CCC(N2C(=O)c3ccc(CN4CCC(N5CCN(c6cccc(Cl)c6Cl)CC5)C(F)(F)C4)cc3C2=O)C(=O)N1 (stereo not drawn) | B (80%< substrate protein remaining %≤ 100%)
O=C1CCN(N2C(=O)c3ccc(CN4CCC(N5CCN(c6cccc(Cl)c6Cl)CC5)C(F)(F)C4)cc3C2=O)C(=O)N1 (stereo not drawn) | B (80%< substrate protein remaining %≤ 100%)
CC1(C)CCC(CN2CCN(C3CCN(Cc4cccc5c4C(=O)N(C4CCC(=O)NC4=O)C5)CC3(F)F)CC2)=C(c2ccc(Cl)cc2)C1 (stereo not drawn) | B (80%< substrate protein remaining %≤ 100%)
O=C1CCC(N2C(=O)c3cccc(C(=O)N4CCC(N5CCN(c6cccc(Cl)c6Cl)CC5)CC4)c3C2=O)C(=O)N1 (stereo not drawn) | B (80%< substrate protein remaining %≤ 100%)
O=C1CCN(N2Cc3cc(CN4CCC(N5CCN(C(c6ccccc6)c6ccccc6)CC5)CC4)ccc3C2=O)C(=O)N1 | A (0% ≤ substrate protein remaining % ≤ 80%)
O=C1CCC(N2C(=O)c3cccc(C(=O)N4CCC(N5CCN(C(c6ccccc6)c6ccccc6)CC5)CC4)c3C2=O)C(=O)N1 (stereo not drawn) | B (80%< substrate protein remaining %≤ 100%)
O=C1CCC(N2Cc3cc(CCCN4CCC(N5CCC(c6noc7cc(F)ccc67)CC5)C(F)(F)C4)ccc3C2=O)C(=O)N1 (stereo not drawn) | A (0% ≤ substrate protein remaining % ≤ 80%)
O=C1CCC(N2C(=O)c3cccc(CN4CCC(N5CC=C(c6cccc(Cl)c6Cl)CC5)C(F)(F)C4)c3C2=O)C(=O)N1 (stereo not drawn) | B (80%< substrate protein remaining %≤ 100%)

Target: WEE1 (Homo sapiens, UniProt P30291+Q96SW2)
Test: as above
Conditions: 24 hours treatment, compounds at 50 nM and 500 nM (concentration behind the class not stated)

Compound | substrate protein remaining % (WEE1)
O=C1CCC(N2C(=O)c3ccc(CN4CCC(N5CCN(c6cccc(Cl)c6Cl)CC5)C(F)(F)C4)cc3C2=O)C(=O)N1 (stereo not drawn) | A (0% ≤ substrate protein remaining % ≤ 80%)
O=C1CCN(N2C(=O)c3ccc(CN4CCC(N5CCN(c6cccc(Cl)c6Cl)CC5)C(F)(F)C4)cc3C2=O)C(=O)N1 (stereo not drawn) | B (80%< substrate protein remaining %≤ 100%)
CC1(C)CCC(CN2CCN(C3CCN(Cc4cccc5c4C(=O)N(C4CCC(=O)NC4=O)C5)CC3(F)F)CC2)=C(c2ccc(Cl)cc2)C1 (stereo not drawn) | B (80%< substrate protein remaining %≤ 100%)
O=C1CCC(N2C(=O)c3cccc(C(=O)N4CCC(N5CCN(c6cccc(Cl)c6Cl)CC5)CC4)c3C2=O)C(=O)N1 (stereo not drawn) | A (0% ≤ substrate protein remaining % ≤ 80%)
O=C1CCN(N2Cc3cc(CN4CCC(N5CCN(C(c6ccccc6)c6ccccc6)CC5)CC4)ccc3C2=O)C(=O)N1 | B (80%< substrate protein remaining %≤ 100%)
O=C1CCC(N2C(=O)c3cccc(C(=O)N4CCC(N5CCN(C(c6ccccc6)c6ccccc6)CC5)CC4)c3C2=O)C(=O)N1 (stereo not drawn) | B (80%< substrate protein remaining %≤ 100%)
O=C1CCC(N2Cc3cc(CCCN4CCC(N5CCC(c6noc7cc(F)ccc67)CC5)C(F)(F)C4)ccc3C2=O)C(=O)N1 (stereo not drawn) | A (0% ≤ substrate protein remaining % ≤ 80%)
O=C1CCC(N2C(=O)c3cccc(CN4CCC(N5CC=C(c6cccc(Cl)c6Cl)CC5)C(F)(F)C4)c3C2=O)C(=O)N1 (stereo not drawn) | B (80%< substrate protein remaining %≤ 100%)
